Data taken from patent US9745283B2, “Uracil derivatives as AXL and c-MET kinase inhibitors” (priority 2011, dated 2017).

By UniProt entry, the sequences of proteins in these tests, tags left out. Residues count along the entry.
UniProt P30530, 26-894: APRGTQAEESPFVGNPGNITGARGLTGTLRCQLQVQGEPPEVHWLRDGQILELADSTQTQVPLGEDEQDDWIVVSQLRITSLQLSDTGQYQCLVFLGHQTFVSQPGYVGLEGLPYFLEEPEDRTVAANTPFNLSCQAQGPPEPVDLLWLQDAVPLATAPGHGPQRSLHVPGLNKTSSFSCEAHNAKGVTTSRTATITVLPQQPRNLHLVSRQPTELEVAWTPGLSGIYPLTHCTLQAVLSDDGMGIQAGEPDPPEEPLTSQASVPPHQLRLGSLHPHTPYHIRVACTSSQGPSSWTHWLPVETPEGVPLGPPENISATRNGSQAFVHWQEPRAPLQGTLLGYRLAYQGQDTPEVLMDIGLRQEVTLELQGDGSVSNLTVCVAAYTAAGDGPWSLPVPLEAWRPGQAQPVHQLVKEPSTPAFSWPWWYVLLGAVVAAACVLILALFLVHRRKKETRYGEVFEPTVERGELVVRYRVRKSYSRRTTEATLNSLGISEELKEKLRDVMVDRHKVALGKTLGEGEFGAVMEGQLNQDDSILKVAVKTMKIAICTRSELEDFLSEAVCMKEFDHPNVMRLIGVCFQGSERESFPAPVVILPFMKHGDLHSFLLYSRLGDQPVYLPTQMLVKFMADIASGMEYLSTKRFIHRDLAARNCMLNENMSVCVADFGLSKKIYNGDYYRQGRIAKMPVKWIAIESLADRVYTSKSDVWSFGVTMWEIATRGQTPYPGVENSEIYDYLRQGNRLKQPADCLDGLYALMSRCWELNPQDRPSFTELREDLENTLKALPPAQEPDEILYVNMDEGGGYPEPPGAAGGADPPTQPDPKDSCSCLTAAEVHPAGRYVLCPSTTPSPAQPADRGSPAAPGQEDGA

Biological target: recombinant human baculovirus-expressed AXL (Homo sapiens (Human), UniProt P30530)
Test: AXL Kinase Assay (HTRF KinEASE)
Assay type: biochemical
Settings: average of two or more determinations

Row | IC50 [nM] | Compound
1 | < 10 | COc1cc2nccc(Oc3ccc(NC(=O)c4cn(CCCCO)c(=O)n(-c5ccc(F)cc5)c4=O)cc3F)c2cc1OC [Example 55, 3-(4-Fluorophenyl)-1-(4-hydroxybutyl)-2,4-dioxo-1,2,3,4-tetrahydropyrimidine-5-carboxylic acid [4-(6,7-dimethoxyquinolin-4-yloxy)-3-fluorophenyl]-amide]
2 | < 10 | C#CCn1cc(C(=O)Nc2ccc(Oc3ccnc4cc(OC)c(OC)cc34)c(F)c2)c(=O)n(CC#C)c1=O [Example 98, 2,4-Dioxo-1,3-di-prop-2-ynyl-1,2,3,4-tetrahydro-pyrimidine-5-carboxylic acid [4-(6,7-dimethoxy-quinolin-4-yloxy)-3-fluoro-phenyl]-amide]
